Yeast mating assay B: variants of the scFv Ab-14

Data: MIT Lincoln Laboratory AlphaSeq set, Li et al. 2023, doi:10.1038/s41467-023-39022-2, as distributed in FLAb.

Binding partner: SARS-CoV-2 spike HR2 peptide, sequence PDVDLGDISGINAS.

Parent scFv Ab-14: VH joined to VL by the linker GGGGSGGGGSGGGGS. Changes lie in the heavy chain CDRs alone.
VH: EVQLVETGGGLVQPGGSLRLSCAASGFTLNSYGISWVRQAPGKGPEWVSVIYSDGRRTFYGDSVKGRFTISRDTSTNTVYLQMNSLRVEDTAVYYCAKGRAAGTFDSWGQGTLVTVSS
VL: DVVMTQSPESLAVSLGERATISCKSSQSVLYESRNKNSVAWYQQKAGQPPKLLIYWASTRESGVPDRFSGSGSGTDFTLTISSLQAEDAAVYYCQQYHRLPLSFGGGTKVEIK

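This is the validation round: designs drawn from the data on random variants, tested in the same kind of assay. Group labels follow the data file (Ctrl: baseline library sampled from a position-specific scoring matrix, with some repeated check sequences; Rand: our label for a block that the file lists under HC and that is probably the random mutants of the ten best first-round binders; En: ensemble of fine-tuned language models; GP: Gaussian process model; GPLM: also part of the Gaussian process libraries; HC: hill climbing; Gen: genetic algorithm; Gibbs: Gibbs sampling; a sequence that several methods proposed may carry one label only). The scFvs were displayed on barcoded MATa yeast, the peptide on MATalpha yeast. Binding brings cells together so that they mate, and sequencing counts the barcode pairs among the diploids. A regression on co-assayed BCL2-family reference pairs converts the normalised counts of each replicate to an apparent Kd. Mating was done six times.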

Each variant is given by its three heavy chain CDRs, as the data file delimits them; those of the parent are GFTLNSYGIS, VIYSDGRRTFYGDSVK, GRAAGTFDS. Values are log10 of the apparent Kd in nM; lower means stronger binding. Averages over replicates are reported, and they cover detected replicates only. A pair that was not seen in any replicate is written "not detected"; this usually means weak binding, but a binder can also be missed. Entries are sorted by rising average, undetected variants last. Three control strains display no target. For all heavy chain designs, 1% of the pairings with them gave a signal, with a median of 2.08 and one signal in twenty below 0.84, so weak values seen in few replicates may be background. Also given: how often the same scFv was detected with the empty control strains. Values of this round are not directly comparable with the first-round values of the same sequences. The authors averaged sequences with at least three values out of six and counted those with two or fewer as poor binders. The parent sequence was in this pool as ten entries: three were never detected, three once, and four in most replicates, with averages from 0.34 to 2.37.

"log10 Kd (nM), mean",seen in,control signals,CDR-H1,CDR-H2,CDR-H3,group
-0.95,6 of 6,0 of 18,GFSLDEYGIS,VIYADGRRTFYQDDVK,GNVAGTFDF,En_HC
-0.62,6 of 6,0 of 18,GFDLDEYGIS,VIYADGRRTFYADSVK,GTNAGTFDT,En_HC
-0.61,6 of 6,0 of 18,GFDLDEYGIS,VIYADGRRTFYADSVK,GEVAGTFDS,En_HC
-0.59,6 of 6,1 of 18,GFTLNDYGIS,VIYSDGRRTWYGDSVK,GREAGTFDS,GP_HC
-0.57,6 of 6,0 of 18,GFDLNEYGIS,VIYADGMRTAYVDSVK,GTNAGTFDI,En_Gen
-0.49,6 of 6,0 of 18,GFDLNEYGIS,VIYADGKRTAYSDAVK,GNVAGTFDV,En_Gen
-0.38,6 of 6,0 of 18,GFDLNEYGIS,VIYADGMRTAYADNVK,GQTAGTFDL,En_Gen
-0.37,6 of 6,0 of 18,GFDLDEYGIS,VIYADGMRKAYADSVK,GNVAGTFDL,En_Gen
-0.37,6 of 6,0 of 18,GFDLNTYGIS,VIYSDGRRTFYHDSVK,GRTAGTFDS,GP_Gen
-0.34,6 of 6,1 of 18,GFELNSYGIS,VIYADGRRTFYADSVK,GRAAGTFDS,GP_Gen
-0.33,6 of 6,0 of 18,GFDLNEYGIS,VIYADGRRTFYADSVK,GTNAGTFDA,En_HC
-0.29,6 of 6,0 of 18,GFDLNEYGIS,VIYADGRRTAYSDSVK,GGNAGTFDI,En_Gen
-0.20,6 of 6,0 of 18,GFGLNEYGIS,VIYSDGKRTFYGDSVK,GRTAGTFDS,GPLM_Gibbs
-0.13,6 of 6,0 of 18,GFDLNEYGIS,VIYADGRRTFYSDSVK,GQNAGTFDI,En_HC
-0.11,6 of 6,0 of 18,GFSLNDYGIS,VIYSDGRRTFYGDSVK,GRAAGTFWS,GPLM_HC
-0.08,6 of 6,2 of 18,GFDLNEYGIS,VIYADGMRTAYIDSVK,GEAAGTFDV,En_HC
-0.02,6 of 6,1 of 18,GFDLNSYGIS,VIYSDGRRTFYADSVK,GRQAGTFDT,GP_Gen
0.02,6 of 6,1 of 18,GFDLNEYGIS,VIYADGVRTAYADSVK,GETAGTFDQ,En_Gen
0.07,6 of 6,0 of 18,GFDLNSYGIS,VIYSDGRRTFYKDSVK,GNAAGTFDA,GPLM_Gibbs
0.11,6 of 6,0 of 18,GFDLNEYGIS,VIYADGRRTAYSDSVK,GNQAGTFDQ,En_HC
0.13,6 of 6,0 of 18,GFSLNSYGIS,VIYSDGRRTFYDDSVK,GMLAGTFDS,GP_HC
0.20,5 of 6,0 of 18,GFTLNSYGIS,VIYSDGKRTFYSDDVK,GRTAGTFDS,GPLM_HC
0.21,6 of 6,0 of 18,GFDLNEYGIS,VIYADGMRTVYADSVK,GQTAGTFDV,En_Gen
0.26,6 of 6,1 of 18,GFDLNSYGIS,VIYSDGRRTFYGDSVK,GVEAGTFDS,GPLM_Gibbs
0.28,6 of 6,0 of 18,GFSLNSYGIS,VIYSDGRRTFYTDSVK,GREAGTFDS,GPLM_Gen
0.39,5 of 6,0 of 18,GFELNSYGIS,VIYSDGRRTFYIDSVK,GQAAGTFDT,GPLM_Gibbs
0.41,6 of 6,0 of 18,GFDLNEYGIS,VIYADGSRTAYADSVK,GENAGTFDV,En_Gen
0.58,3 of 6,0 of 18,GFSLNSYGIS,VIYSDGLRTFYGDSVK,GRAAGTFDS,Ctrl
0.64,6 of 6,0 of 18,GFDLNEYGIS,VIYADGMRTAYADNVK,GNEAGTFDV,En_Gen
0.66,6 of 6,0 of 18,GFELNDYGIS,VIYSDGRRTFYIDSVK,GRFAGTFDS,GP_HC
0.70,6 of 6,1 of 18,MFDLNSYGIS,VIYSDGRRTFYGDSVK,GQVAGTFDS,GP_Gibbs
0.90,5 of 6,1 of 18,GFSLNSYGIS,VIYSDGIRTFYGDSVK,GNIAGTFDS,Ctrl
1.12,6 of 6,0 of 18,GFTLNEYGIS,VIYSDGRRTFYGDSVK,GRFAGTFDL,GPLM_HC
1.13,5 of 6,0 of 18,GFWLNEYGIS,VIYSDGRRTFYSDSVK,GKAAGTFDS,GPLM_Gen
1.25,6 of 6,0 of 18,GFGLNDYGIS,VIYSDGRRTFYHDSVK,GRAAGTFDS,GP_Gibbs
1.30,6 of 6,0 of 18,GFQLNSYGIS,VIYSDGRRTFYGDDVK,GRTAGTFDS,GP_Gen
2.05,6 of 6,1 of 18,GFTLNEYGIS,VIYSDGRRTFYGDSVK,GRHAGTFDK,GPLM_Gen
2.30,4 of 6,1 of 18,KFSLNSYGIS,VIYSDGRRTFYADSVK,GRLAGTFDS,GPLM_Gen
not detected,0 of 6,0 of 18,GFTLDSYGIS,VIYSDGRRTFYGDSVK,GRAAGTFDT,GPLM_HC
not detected,0 of 6,0 of 18,GFTLNEYGIS,VIYSDGRRTFYGDSVK,GRAAGTFRT,Ctrl
not detected,0 of 6,0 of 18,GFTLNSYGIS,VIYSDGRRTGYGDSVK,GRAAGTFDD,Ctrl
not detected,0 of 6,0 of 18,GFWLNSYGIS,VIYSDGLRTFYGDSVK,GRAAGTFDS,Ctrl
not detected,0 of 6,0 of 18,GFDLNEYGIS,VIYADGKRYHYQDSVK,GGVVGKVLY,En_Gibbs
not detected,0 of 6,0 of 18,GFSLNEYGIS,VIYSDGRRTFYGDSVK,GQAAGTFDQ,GPLM_Gen
not detected,0 of 6,0 of 18,GFHLNSYGIS,VIYSDGRRTFYIDSVK,GKQAGTFDS,GP_Gen
not detected,0 of 6,0 of 18,GFTLNSYGIS,VIYSDGRRTFYGDSVK,GFAAAFFDS,Ctrl
not detected,0 of 6,0 of 18,GFTLNSYGIS,VIYSDGRRTFYGDSVK,GRAAGTDDS,Ctrl
not detected,0 of 6,0 of 18,GFNLNEYGIS,VIYADGRRTFYADSVK,GGMAGTFDV,En_HC
not detected,0 of 6,0 of 18,GMDLDEYGIS,VIYADGSRVFYVQDVK,GTVDVVGDV,En_Gibbs
not detected,0 of 6,0 of 18,GFDLNSYGIS,VIYADGRRTFYGDSVK,HRAAGTFDL,Ctrl
not detected,0 of 6,0 of 18,GKGLDEYGIS,VIYADGMRTEYQQSVK,GDTGSIFFV,En_Gibbs
not detected,0 of 6,0 of 18,GFGLDEFGIS,VIYADGLRSSYADDVK,GEMTGGFIV,En_Gibbs
not detected,0 of 6,0 of 18,GFSLDEYGIS,VIYADGIRRVYIDKVK,GNYGGDFIE,En_Gibbs
not detected,0 of 6,0 of 18,GFTLNDYGIS,VIYSDGGRTRYGDSVK,GRAALTFIS,Rand

The first 4 variants above that were never detected:

| CDR-H1 | CDR-H2 | CDR-H3 | group | log10 Kd (nM), mean | seen in | control signals |
|---|---|---|---|---|---|---|
| GFTLDSYGIS | VIYSDGRRTFYGDSVK | GRAAGTFDT | GPLM_HC | not detected | 0 of 6 | 0 of 18 |
| GFTLNEYGIS | VIYSDGRRTFYGDSVK | GRAAGTFRT | Ctrl | not detected | 0 of 6 | 0 of 18 |
| GFTLNSYGIS | VIYSDGRRTGYGDSVK | GRAAGTFDD | Ctrl | not detected | 0 of 6 | 0 of 18 |
| GFWLNSYGIS | VIYSDGLRTFYGDSVK | GRAAGTFDS | Ctrl | not detected | 0 of 6 | 0 of 18 |